Chains of the proteins cited; added tags and fusions are not shown. Residues count along the entry.
UniProt Q16552, 24-155 limits assumed: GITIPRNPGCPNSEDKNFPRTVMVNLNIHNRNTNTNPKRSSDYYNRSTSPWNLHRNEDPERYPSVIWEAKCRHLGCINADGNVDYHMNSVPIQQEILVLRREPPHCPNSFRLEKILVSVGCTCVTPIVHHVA

In patent US20250154138A1, “Small Molecule IL-17A Modulators” (BeiGene, Ltd., priority 2022, published 2025):

How the values were obtained:
[1] = test system: IL-17-induced GROα secretion from HT-29 cells; experiment: GROα release assay in human colorectal adenocarcinoma epithelial cell (HT-29, ELISA)
Method: The purpose of the assay is to test the ability of a compound to neutralize IL17A proteins. IL17 can stimulate human epithelial cells to secrete GROα. The ability of one compound of the invention to neutralize IL-17-induced GROα secretion from the human colorectal adenocarcinoma epithelia cell line HT-29 is tested in this assay.
HT-29 cells (human colorectal adenocarcinoma epithelia cell, ATCC) were stimulated with IL-17A (Novoprotein, #C774) in final concentration of 10 ng/mL. The resultant GROα response was measured using an ELISA kit from Invitrogen (#88-52122). HT-29 cells were cultured in complete medium (McCoy's 5A medium+10% FBS) and maintained in a tissue culture flask using standard techniques. On day 1, detached the cell by using TrypLE (Gibco, #12605036) and used the complete medium to neutralize. The cells were centrifuged at 11,00 rmp for 4 minutes. Re-suspended the cell pellet in complete medium and seeded 50,000 HT-29 cells into the 96-well assay plate (Corning, 3599) at 135 μL complete medium per well. The cells were incubated for overnight, at 37° C./5% CO2 to adherent the plate. On day 2, prepared a 4-fold serial dilution of the tested compound in DMSO. The highest concentration of the compound was 10 μM. Transferred 2 μL of the serial diluted compound from the serial dilution plate into the reagent plate which was contained 198 μL complete medium with 100 ng/mL IL-17A per well. The compounds were incubated with the IL-17A for 15 minutes. 15 μL mixtures from reagent plate were transferred into the cell assay plate. Incubated the plate at 37° C./5% CO2 for 48 hours. After the incubation, on day 4, GROα level were measured with GROα ELISA as the manufacturer's instructions. 50 μL supernatant was collected form the assay plate to ELISA plate. ELISA plate was read at 450 nm on a microplate reader and compared to a standard calibration curve.
Data were processed using GraphPad Prism. GROα concentration was calculated from the standard curve. IC50 was determined using the equation log concentration (inhibitor) against response and fitted to four parameters.

[2] = target: human IL-17A / human IL-17RA (Homo sapiens (Human), UniProt Q16552); experiment: Human IL-17A biochemical assay (HTRF, blocking of IL-17A binding to IL-17RA)

| IC50 ([1]; read-out: Cellular assay HT29 cell/CXCL1 IC50, 10 ng/mL IL-17A, 48 hours, highest concentration 10 μM, listed as 290 isomer 1) | IC50 ([1]; read-out: Cellular assay HT29 cell/CXCL1 IC50, 10 ng/mL IL-17A, 48 hours, highest concentration 10 μM, listed as 290 isomer 2) | IC50 ([2]; read-out: Biochemical assay IL-17A/IL-17RA IC50, 0.4 nM IL-17A, 0.3 nM IL-17RA, max compound concentration 10 uM, listed as 290 isomer 1) | IC50 ([2]; read-out: Biochemical assay IL-17A/IL-17RA IC50, 0.4 nM IL-17A, 0.3 nM IL-17RA, max compound concentration 10 uM, listed as 290 isomer 2) | IC50 ([1]; read-out: Cellular assay HT29 cell/CXCL1 IC50, 10 ng/mL IL-17A, 48 hours, highest concentration 10 μM, listed as 292 isomer 1) | IC50 ([1]; read-out: Cellular assay HT29 cell/CXCL1 IC50, 10 ng/mL IL-17A, 48 hours, highest concentration 10 μM, listed as 292 isomer 2) | IC50 ([2]; read-out: Biochemical assay IL-17A/IL-17RA IC50, 0.4 nM IL-17A, 0.3 nM IL-17RA, max compound concentration 10 uM, listed as 292 isomer 1) | IC50 ([2]; read-out: Biochemical assay IL-17A/IL-17RA IC50, 0.4 nM IL-17A, 0.3 nM IL-17RA, max compound concentration 10 uM, listed as 292 isomer 2) | Structure (SMILES) |
| --- | --- | --- | --- | --- | --- | --- | --- | --- |
| 60.3 nM | 271 nM | 18.6 nM | 641 nM | – | – | – | – | CC(C)n1nccc1C(=O)N[C@H](C(=O)Nc1ccc2c(c1)OC(C(C1CC1)N1C[C@@H](C(F)(F)F)NC1=O)C2)C(C1CC1)C1CC1 (single isomer, unassigned) |
| – | – | – | – | 206 nM | 496 nM | 287 nM | 213 nM | CNC(C(F)(F)F)C1(N2C[C@@H](C(C)C)NC2=O)Cc2ccc(NC(=O)[C@@H](NC(=O)c3nonc3C)C(C3CC3)C3CC3)cc2C1 (single isomer, unassigned) |

Read-outs that look alike come from different tables or passages of the source.
